Data published in PubChem BioAssay AID463254 (National Center for Advancing Translational Sciences (NCATS), 2010).
The entries are a selection whose mix differs from that of the whole data set. Some structures show a salt or complex split into parts, the way the source records it. Active and inactive are the calls of the source. Calls follow the shape of the dose curve; as a rule, active = well fitted inhibition curve with a large enough effect; inconclusive = small, poorly fitted or top-dose-only effect, or effect the other way; inactive = flat fitted curve, though single readings scatter.

The chains behind the UniProt entries cited, without tags or fusion partners.
UniProt O75604, whole entry: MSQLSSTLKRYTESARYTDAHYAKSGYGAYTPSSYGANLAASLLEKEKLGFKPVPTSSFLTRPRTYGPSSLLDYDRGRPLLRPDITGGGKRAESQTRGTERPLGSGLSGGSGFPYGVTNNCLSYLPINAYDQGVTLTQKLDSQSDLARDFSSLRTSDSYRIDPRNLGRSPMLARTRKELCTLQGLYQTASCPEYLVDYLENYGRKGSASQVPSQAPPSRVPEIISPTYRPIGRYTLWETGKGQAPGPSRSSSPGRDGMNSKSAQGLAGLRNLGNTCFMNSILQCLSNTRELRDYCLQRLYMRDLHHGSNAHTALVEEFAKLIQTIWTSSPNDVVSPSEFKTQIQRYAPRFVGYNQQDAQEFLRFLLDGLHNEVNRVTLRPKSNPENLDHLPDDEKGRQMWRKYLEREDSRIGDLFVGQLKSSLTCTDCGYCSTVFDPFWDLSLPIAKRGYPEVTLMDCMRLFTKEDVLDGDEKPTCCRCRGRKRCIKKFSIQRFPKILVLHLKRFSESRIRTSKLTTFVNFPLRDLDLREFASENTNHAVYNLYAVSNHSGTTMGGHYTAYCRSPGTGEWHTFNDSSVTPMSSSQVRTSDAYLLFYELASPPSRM

Target: Ubiquitin carboxyl-terminal hydrolase 2 (Homo sapiens) (UniProt O75604)
Test: qHTS Assay for Inhibitors of Ubiquitin-specific Protease USP2a Using CHOP2 as the Reporter;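 also: plate controls were DMSO wells for no effect and full inhibition by NEM control for full effect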
Conditions: USP2 core, Ub-CHOP2 coupled fluorogenic reporter, 485/531; at 38.3 µM (top of the series)
Source text: NIH Molecular Libraries Screening Centers Network [MLSCN] NIH Chemical Genomics Center [NCGC] MLSCN Grant: XO1-MH079852-01 PI Name: Nicholson, Ben. Progenra Inc, Malvern, PA NCGC Assay Overview: Homeostasis of cellular proteins is maintained through a combination of synthesis and degradation. The pathway that accounts for the majority of protein degradation is the ubiquitin-proteasomal pathway. Ubiquitin (Ub) is highly conserved in all cells and the generation of a multi-Ub chain typically targets proteins for degradation by the proteasome. However, ubiquitination is highly reversible and dynamic. Deubiquitination, the reverse process, is catalyzed through the action of enzymes referred to as isopeptidases or deubiquitinating enzymes (DUBs). This group of enzymes is collectively responsible for maintaining adequate pools of free ubiquitin and regulating the ubiquitination status of cellular proteins. The class of DUBs referred to as the ubiquitin-specific proteases (USP) family functions endoproteolytically to cleave Ub chains from a wide range of protein substrates. USP2a deubiquitinates fatty acid synthase (FASN) which has recently been identified as an emerging oncology target. To identify inhibitors of USP2a a cell-free assay was employed. […] The reporter enzyme chosen is an enterokinase called CHOP2, which is activated when the Ub is cleaved by USP2. The free and now activated reporter can subsequently act on its reporter substrate. Thus, this coupled assay gives a fluorescent read-out at excitation/emission wavelengths of 485/531. The assay was developed by Progenra, Inc. and has been licensed for sale by LifeSensors, Inc. as Ub-CHOP2-Reporter-Kit (#PR1101).
NCGC Assay Protocol Summary: The assay buffer, prepared fresh at the day of the assay, contains 20mM Tris-HCl pH 8.0, 2mM CaCl2, 2mM beta-Mercaptoethanol, 0.05% CHAPS. 3ul of 20nM (10nM final) USP2 core, which is stored on ice, is dispensed into a medium-binding black solid Kalypsys 1,536 well plate using the Kalypsys dispenser. The assay plate is then pinned with 23nL compound with the Kalypsys pintool in columns 5-48. The controls are pinned as follows: column 1 two-fold dilutions of 2M NEM in duplicate; column 2 2M NEM (final concentration 38.2mM); column 3&4 DMSO. The assay plate is incubated at RT for 30min. Subsequently, 1.5uL of 100nM (25nM final) Ub-CHOP2 and 1.5uL of 100nM (25nM final) Reporter Substrate (both stored on ice and protected from light) were dispensed into the plate using the Kalypsys dispenser. Plates were read after 60min RT incubation on a ViewLux (Perkin Elmer) plate reader using the following wavelengths Ex 485nm /Em 531nm. Data were normalized to the to AC100 inhibition (NEM). Concentration-response curves were fitted to the normalized data and the concentration-response curves were then classified based on curve quality (r2), response magnitude and degree of measured activity. The time zero reading was used to flag fluorescence artifacts. Keywords: ubiquitination, deubiquitination, proteases, profluorescent, MLSMR, MLPCN, NIH Roadmap, qHTS, NCGC

Row | SMILES | activity change, negative = inhibition
1 | CCOC(=O)N1CCC(Nc2ccc(F)cc2)CC1 | inactive: -0.263%
2 | COc1ccc(NC2CCN(CCc3ccccc3)CC2)c(OC)c1 | inactive: 0.914%
3 | O=C(NCC1(N2CCCCC2)CCCCC1)c1ccc(F)cc1 | inactive: 0.76%
4 | CCCCOc1ccc(C(=O)NCC2(N3CCOCC3)CCCCC2)cc1 | inactive: 0.268%
5 | CCOc1ccc(C)cc1CN(CCCl)CCCl | inactive: 1.63%
6 | Cc1ccc(OCC(C)C)c(CN(CCCl)CCCl)c1 | inactive: 10.3%
7 | COc1cc(C(=O)NCC2(N(C)C)CCCCC2)ccc1OC(F)F | inactive: 2.82%
8 | CCOC(=O)N1CCC(Nc2cccc(C)c2)CC1 | inactive: 1.27%
9 | CSc1ccccc1C(=O)NCC1(N2CCCCC2)CCCCC1 | inactive: -1%
10 | O=C(NCC1(N2CCCCC2)CCCCC1)c1cccs1 | inactive: 1.81%
11 | O=C(NCC1(N2CCCCC2)CCCCC1)c1ccc(=O)[nH]c1 | inactive: -1.01%
12 | CC(C)(C)OC(=O)N1CCC(N(C(=O)c2ccccc2)c2ccc(F)cc2)CC1 | inactive: 1.96%
13 | COc1ccc(C(=O)NCC2(N3CCCCC3)CCCCC2)c(OC)c1OC | inactive: 1.99%
14 | COc1ccc(C(=O)NCC2(N3CCCCC3)CCCCC2)cc1 | inactive: 9.84%
15 | CCOC(=O)N1CCC(Nc2ccc(OC)cc2)CC1 | inactive: 0.666%
16 | COc1ccc(Cl)cc1C(=O)NCC1(N2CCOCC2)CCCCC1 | inactive: -3.61%
17 | O=C(OC1CN2CCC1CC2)C1c2ccccc2Oc2ccccc21 (centres undefined) | inactive: -0.545%
18 | O=C(NCC1(N2CCCCC2)CCCCC1)c1ccc(Cl)s1 | inactive: 2.61%
19 | N#CC1(Nc2ccccc2)CCN(Cc2ccccc2)CC1 | inactive: 1.94%
20 | O=C(NCC1(N2CCOCC2)CCCCC1)c1cc2ccccc2o1 | inactive: 2.42%
21 | Cc1cc(C)cc(N(C(=O)c2ccccc2)C2CCN(C(=O)OC(C)(C)C)CC2)c1 | inactive: -0.146%
22 | O=C(NCC1(N2CCCCC2)CCCCC1)c1ccc(Cl)nc1 | inactive: -0.738%
23 | O=C(NCC1(N2CCOCC2)CCCCC1)c1cc(F)c(F)cc1Cl | inactive: -4.21%
24 | COc1cc(OC)c(C(=O)NCC2(N(C)C)CCCCC2)cc1OC | inactive: -0.268%
25 | CN(C)c1cccc(C(=O)NCC2(N3CCCCC3)CCCCC2)c1 | inactive: 3.02%

Row | SMILES | activity change, negative = inhibition
26 | O=[N+]([O-])c1cc([N+](=O)[O-])c(OC2CCCCC2O)c([N+](=O)[O-])c1 (centres undefined) | inactive: 0.294%
27 | COc1ccc(CN(CCCl)CCCl)cc1Cl | inactive: -1.32%
28 | CC(C)c1ccc(NC2CCN(C(=O)OC(C)(C)C)CC2)cc1 | inactive: 0.294%
29 | CCCOc1ccc(C(=O)NCC2(N(C)C)CCCCC2)cc1OC | inactive: -1.36%
30 | COc1ccc2c(c1O)-c1c(O)c(OC)cc3c1[C@H](C2)[N+](C)(C)CC3.O=[N+]([O-])c1cc([N+](=O)[O-])c([O-])c([N+](=O)[O-])c1[O-] | inactive: 8%
31 | O=C(NCC1(N2CCCCC2)CCCCC1)c1cncc(Br)c1 | inactive: 2.81%
32 | O=C(OC1CN2CCC1CC2)c1ccc([N+](=O)[O-])cc1 (centres undefined) | inactive: 1.62%
33 | O=C(NCC1(N2CCCCC2)CCCCC1)c1cccc([N+](=O)[O-])c1 | inactive: -0.346%
34 | CSc1ccc(C(=O)NCC2(N3CCOCC3)CCCCC2)cc1 | inactive: -1.36%
35 | N#CC1(Nc2ccccc2)CCN(CCc2ccccc2)CC1 | inactive: 0.668%
36 | CCN1CCC(Nc2ccc(Cl)cc2)CC1 | inactive: 2.82%
37 | O=C(NCC1(N2CCCCC2)CCCCC1)c1ccc(OC(F)F)cc1 | inactive: -0.219%
38 | CC(C)c1ccc(C(=O)NCC2(N3CCOCC3)CCCCC2)cc1 | inactive: 1.58%
39 | COc1ccc(NC2CCN(C(=O)OC(C)(C)C)CC2)cc1 | inactive: 12.6%
40 | CN1CCN(CCOC(=O)C(O)(c2ccccc2)c2ccccc2)CC1 | inactive: 3.6%
41 | O=C(NCC1(N2CCOCC2)CCCCC1)c1cc(=O)[nH]c2ccccc12 | inactive: -5.46%
42 | COc1cc(C(=O)NCC2(N3CCCCC3)CCCCC2)ccc1OC(F)F | inactive: -0.124%
43 | O=C(NCC1(N2CCCCC2)CCCCC1)c1cccc(C(F)(F)F)c1 | inactive: -0.763%
44 | O=[N+]([O-])c1cc([N+](=O)[O-])c(NCC2CCS(=O)(=O)C2)c([N+](=O)[O-])c1 (centres undefined) | inactive: -0.755%
45 | CCOC(=O)C(CC)C1=NC(C)(C)Cc2ccccc21.O=[N+]([O-])c1cc([N+](=O)[O-])c(O)c([N+](=O)[O-])c1 (centres undefined) | inactive: 3.49%
46 | CC(C)(C)OC(=O)N1CCC(N(C(=O)c2ccccc2)c2ccc(Cl)cc2)CC1 | inactive: -3.06%
47 | N#Cc1ccc(C(=O)NCC2(N3CCCCC3)CCCCC2)cc1 | inactive: 0.985%
48 | CCCN1CCC(Nc2cc(OC)cc(OC)c2)CC1 | inactive: 0.482%
49 | c1ccc(CN2CCC(Nc3ccccc3)CC2)cc1 | inactive: 0.763%
50 | CN(C)C1(CNC(=O)c2cccc(C#N)c2)CCCCC1 | inactive: -5.67%

Row | SMILES | activity change, negative = inhibition
51 | COc1ccc(C(=O)NCC2(N3CCOCC3)CCCCC2)cc1OC | inactive: 7.62%
52 | O=C(NCC1(N2CCOCC2)CCCCC1)c1cc(Br)ccc1Cl | inactive: -8.53%
53 | COc1cc(C(=O)NCC2(N3CCOCC3)CCCCC2)cc(OC)c1C | inactive: -4.85%
54 | O=C(O)c1cccc(Nc2c([N+](=O)[O-])cc([N+](=O)[O-])cc2[N+](=O)[O-])c1 | inactive: 8.88%
55 | O=C(OC1CN2CCC1CC2)C1c2ccccc2C=Cc2ccccc21 (centres undefined) | inactive: -1.16%
56 | CCc1cc(C(=O)NCC2(N3CCCCC3)CCCCC2)sc1C | inactive: 2.82%
57 | N/C(=N\O)c1c(N)no[n+]1[O-] | inactive: 0.458%
58 | CCOC(=O)N1CCC(Nc2ccc(C)cc2)CC1 | inactive: 0.0596%
59 | CCCOc1ccc(C(=O)NCC2(N(C)C)CCCCC2)cc1 | inactive: 3.01%
60 | O=C(O)C1(Nc2ccccc2)CCN(Cc2ccccc2)CC1 | inactive: -0.92%
61 | CC(C)(C)OC(=O)N1CCC(Nc2ccccc2)CC1 | inactive: 2.51%
62 | CN1CCC(Nc2ccc(F)c(Cl)c2)CC1 | inactive: -1.27%
63 | CCOc1ncccc1C(=O)NCC1(N2CCOCC2)CCCCC1 | inactive: 0.0383%
64 | CCCOc1ccc(C)cc1CN(CCCl)CCCl | inactive: 0.142%
65 | CN1CCC(Nc2ccc(Cl)cc2)CC1 | inactive: -0.44%
66 | CCC(CO)(C(=O)OC1CN2CCC1CC2)c1ccccc1 (centres undefined) | inactive: 0.443%
67 | COc1cccc(C(=O)N(c2cc(C)cc(C)c2)C2CCN(C(=O)OC(C)(C)C)CC2)c1 | inactive: -6.24%
68 | COc1cc(OC)cc(C(=O)NCC2(N3CCOCC3)CCCCC2)c1 | inactive: 2.53%
69 | Fc1ccccc1NC1CCN(Cc2ccccc2)CC1 | inactive: -1.45%
70 | Cc1ccc(C(=O)NCC2(N3CCCCC3)CCCCC2)o1 | inactive: 1.7%
71 | COc1cc(OC)cc(C(=O)NCC2(N3CCCCC3)CCCCC2)c1 | inactive: 1.44%
72 | CN(C)c1ccc(C(=O)NCC2(N3CCCCC3)CCCCC2)cc1 | inactive: 0.624%
73 | O=C(NCC1(N2CCCCC2)CCCCC1)c1ccco1 | inactive: 4.04%
74 | CCN1CCC(Nc2cccc(F)c2)CC1 | inactive: -2%
